Antibody variant affinities, Ab-91 heavy chain, assay 2

All variants were tested on one target, the spike HR2 peptide PDVDLGDISGINAS (SARS-CoV-2).

Parent: Ab-91, a human scFv built as VL, a 15-residue (Gly4Ser)3 linker, VH. Only the CDRs of the heavy chain vary.
VL: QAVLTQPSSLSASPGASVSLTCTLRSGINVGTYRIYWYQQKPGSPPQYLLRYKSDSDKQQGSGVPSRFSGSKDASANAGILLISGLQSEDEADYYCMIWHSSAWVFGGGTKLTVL
VH: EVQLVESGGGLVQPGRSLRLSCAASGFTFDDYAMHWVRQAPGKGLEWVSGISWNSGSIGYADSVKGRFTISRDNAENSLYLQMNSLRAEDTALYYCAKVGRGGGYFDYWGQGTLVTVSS

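The starting antibody came from a phage panning campaign against this peptide. In library AAYL51, one, two or three CDR residues were substituted; doubles and triples were drawn at random. The scFvs were displayed on barcoded MATa yeast, the peptide on MATalpha yeast. Binding brings cells together so that they mate, and sequencing counts the barcode pairs among the diploids. A regression on co-assayed BCL2-family reference pairs converts the normalised counts of each replicate to an apparent Kd. The assay was run in three technical replicates.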

Variants are written as CDR1, CDR2 and CDR3 of the heavy chain (limits as in the source). Parent: GFTFDDYAMH, GISWNSGSIGYADSVK, VGRGGGYFDY. Scale: log10 of Kd in nM, estimated from mating counts; low values are strong binders. Replicates are averaged; those with no signal do not enter the mean. An entry "n.d." has no value in the source: the pair was not observed among the diploids in that replicate. This suggests poor binding but is not conclusive.

{"CDR-H1": "GFTFDDYAMH", "CDR-H2": "GISWISGSIGYADCVK", "CDR-H3": "VGRGGEYFDY", "replicates, log10 nM": "n.d. n.d. n.d.", "mean log10 Kd (nM)": "n.d.", "control signals": "3/9 (3.73)"}
{"CDR-H1": "NFTFDDYAMH", "CDR-H2": "GISWNSGSIGYADSVK", "CDR-H3": "VGRGHGYFQY", "replicates, log10 nM": "n.d. n.d. n.d.", "mean log10 Kd (nM)": "n.d.", "control signals": "0/9"}
{"CDR-H1": "GFTFDDYAMH", "CDR-H2": "GISWNSGSIGYADQVK", "CDR-H3": "VGRGFGYLDY", "replicates, log10 nM": "1.43 1.42 0.97", "mean log10 Kd (nM)": "1.28", "control signals": "5/9 (4.62)"}
{"CDR-H1": "GFTHDDYSMH", "CDR-H2": "GISWNSGSIGYADSVK", "CDR-H3": "VGRGGWYFDY", "replicates, log10 nM": "4.57 n.d. n.d.", "mean log10 Kd (nM)": "4.57", "control signals": "3/9 (4.19)"}
{"CDR-H1": "GFTFDDYAMH", "CDR-H2": "QISWNSGSIGYADSFK", "CDR-H3": "VGRGGGHFDY", "replicates, log10 nM": "6.27 n.d. n.d.", "mean log10 Kd (nM)": "6.27", "control signals": "5/9 (4.99)"}
{"CDR-H1": "GFTFDDYAMH", "CDR-H2": "GISWKSGSIGYADSVS", "CDR-H3": "VGRGGGYFDY", "replicates, log10 nM": "n.d. n.d. n.d.", "mean log10 Kd (nM)": "n.d.", "control signals": "0/9"}
{"CDR-H1": "VFTFDDYAMT", "CDR-H2": "GISWNSGSIGYADSVK", "CDR-H3": "RGRGGGYFDY", "replicates, log10 nM": "4.68 5.21 5.77", "mean log10 Kd (nM)": "5.22", "control signals": "7/9 (4.83)"}
{"CDR-H1": "GYTFDDYAMH", "CDR-H2": "GISWNFGSIGYADSVK", "CDR-H3": "VGRGTGYFDY", "replicates, log10 nM": "n.d. n.d. n.d.", "mean log10 Kd (nM)": "n.d.", "control signals": "1/9 (3.88)"}
{"CDR-H1": "GFTFDDYAMH", "CDR-H2": "DISWNSGSIGYADSIK", "CDR-H3": "DGRGGGYFDY", "replicates, log10 nM": "n.d. n.d. n.d.", "mean log10 Kd (nM)": "n.d.", "control signals": "2/9 (4.38)"}
{"CDR-H1": "GFTFDDHAMH", "CDR-H2": "GISWNSGSIGYADSVM", "CDR-H3": "VGRGGGYFCY", "replicates, log10 nM": "n.d. n.d. n.d.", "mean log10 Kd (nM)": "n.d.", "control signals": "1/9 (3.40)"}
{"CDR-H1": "GFTFDDYAMH", "CDR-H2": "GHSWNSGSIGPADSVK", "CDR-H3": "VGWGGGYFDY", "replicates, log10 nM": "n.d. n.d. n.d.", "mean log10 Kd (nM)": "n.d.", "control signals": "0/9"}
{"CDR-H1": "GFTFDDYAMH", "CDR-H2": "GISWNSGSPGYADSFK", "CDR-H3": "VGRGGGYFDC", "replicates, log10 nM": "n.d. n.d. 4.60", "mean log10 Kd (nM)": "4.60", "control signals": "5/9 (4.57)"}
{"CDR-H1": "GFTFDDYPMH", "CDR-H2": "EISWNSGSIGYADSVK", "CDR-H3": "VGRGGGYFDY", "replicates, log10 nM": "5.36 n.d. n.d.", "mean log10 Kd (nM)": "5.36", "control signals": "1/9 (4.48)"}
{"CDR-H1": "GFTFEDYAMH", "CDR-H2": "GIEWNSGSPGYADSVK", "CDR-H3": "VGRGGGYFDY", "replicates, log10 nM": "n.d. 3.94 n.d.", "mean log10 Kd (nM)": "3.94", "control signals": "0/9"}
{"CDR-H1": "GFTFDDYAMH", "CDR-H2": "GISSNSVSIGYADSVK", "CDR-H3": "VGCGGGYFDY", "replicates, log10 nM": "n.d. n.d. n.d.", "mean log10 Kd (nM)": "n.d.", "control signals": "0/9"}
{"CDR-H1": "GFTFDDYAMH", "CDR-H2": "GISNNSGSIGYADSCK", "CDR-H3": "VGDGGGYFDY", "replicates, log10 nM": "n.d. n.d. 3.44", "mean log10 Kd (nM)": "3.44", "control signals": "0/9"}
{"CDR-H1": "GFTFDDYAMH", "CDR-H2": "GIPWNSGSIGYADSVK", "CDR-H3": "VGRGGGYFDY", "replicates, log10 nM": "n.d. n.d. n.d.", "mean log10 Kd (nM)": "n.d.", "control signals": "0/9"}
{"CDR-H1": "GFTFDVYAMH", "CDR-H2": "GISWNDGSIGYADSVK", "CDR-H3": "VGRGSGYFDY", "replicates, log10 nM": "n.d. n.d. n.d.", "mean log10 Kd (nM)": "n.d.", "control signals": "0/9"}

From the list, the first 2 with no signal in any replicate:

CDR-H1	CDR-H2	CDR-H3	replicates, log10 nM	mean log10 Kd (nM)	control signals
GFTFDDYAMH	GISWISGSIGYADCVK	VGRGGEYFDY	n.d. n.d. n.d.	n.d.	3/9 (3.73)
NFTFDDYAMH	GISWNSGSIGYADSVK	VGRGHGYFQY	n.d. n.d. n.d.	n.d.	0/9

As a blank, each scFv also met three strains without target: over library AAYL51, 21% of these pairings were detected, typically at 4.54 and seldom below 3.26. For each scFv, signals with the empty controls are counted beside the result, with their mean in brackets.

Values reported by Engelhart et al. 2022, doi:10.1038/s41597-022-01779-4 (FLAb copy).